Chains of the proteins cited; added tags and fusions are not shown. Lines headed by an entry give the natural chain unless they say otherwise; changes in a name come on top.
UniProt P11229: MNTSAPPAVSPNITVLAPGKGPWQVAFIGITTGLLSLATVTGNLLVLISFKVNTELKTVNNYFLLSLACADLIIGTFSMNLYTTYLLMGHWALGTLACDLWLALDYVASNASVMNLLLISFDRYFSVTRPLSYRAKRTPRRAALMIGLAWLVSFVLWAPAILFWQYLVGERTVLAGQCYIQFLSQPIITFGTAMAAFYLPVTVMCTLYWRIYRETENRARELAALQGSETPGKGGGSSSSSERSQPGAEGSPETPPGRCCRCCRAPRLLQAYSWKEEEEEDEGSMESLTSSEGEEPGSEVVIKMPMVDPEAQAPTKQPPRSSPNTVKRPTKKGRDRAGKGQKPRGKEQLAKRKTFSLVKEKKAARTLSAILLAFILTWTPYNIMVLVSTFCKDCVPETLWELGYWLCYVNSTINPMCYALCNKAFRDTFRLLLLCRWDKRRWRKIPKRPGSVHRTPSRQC
UniProt O60678: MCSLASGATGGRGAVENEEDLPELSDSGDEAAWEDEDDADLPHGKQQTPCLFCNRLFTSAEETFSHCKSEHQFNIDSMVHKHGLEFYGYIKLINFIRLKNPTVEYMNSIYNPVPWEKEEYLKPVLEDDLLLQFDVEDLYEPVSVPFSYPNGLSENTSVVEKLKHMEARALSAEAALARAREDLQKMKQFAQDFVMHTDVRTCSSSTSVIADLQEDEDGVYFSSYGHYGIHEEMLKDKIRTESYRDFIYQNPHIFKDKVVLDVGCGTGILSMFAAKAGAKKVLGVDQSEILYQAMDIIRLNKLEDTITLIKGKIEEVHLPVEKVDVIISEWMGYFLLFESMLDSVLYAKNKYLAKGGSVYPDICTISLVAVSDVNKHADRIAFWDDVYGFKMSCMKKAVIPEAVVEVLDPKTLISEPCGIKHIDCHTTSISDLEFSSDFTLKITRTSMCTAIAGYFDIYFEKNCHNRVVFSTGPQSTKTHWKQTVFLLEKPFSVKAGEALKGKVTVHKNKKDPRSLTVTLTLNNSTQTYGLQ

According to ChEMBL document CHEMBL5210121, “Affinity On-target Cellular Literature for EUbOPEN Chemogenomics Library wave 3” (2023):

Legend:
[1] = target: Muscarinic acetylcholine receptor M1 (Homo sapiens) (UniProt P11229); details: Affinity On-target Cellular Source Knowledge https://pubs.acs.org/doi/10.1021/jm200400m,https://pubs.acs.org/doi/10.1021/ml300280g, https://www.sgc-ffm.uni-frankfurt.de/#!specificprobeoverview/MSD-M1PAM
[2] = target: Protein arginine N-methyltransferase 3 (Homo sapiens, UniProt O60678)

| Compound | Potentiation inflection point [1] [µM] | IC50 [2] [nM] |
| --- | --- | --- |
| N#CC1(c2ccccn2)CCN(Cc2cc(C(=O)N3CCCC3)c(=O)n3ccccc23)CC1 | > 10 |  |
| CC(C)Oc1ccc(-c2c[nH]cc2CN(C)CCN)cc1 |  | 1000 |
